These results are taken from patent publication US7560106B2, “Rationally designed heparinases derived from heparinase I and II and methods of sequencing therewith” (Massachusetts Institute of Technology, priority 1998, dated 2009).

Amino acid sequences for entries named in this document (tags omitted). A change or cut given only in a name is not applied to a line headed by its entry.
UniProt Q05819: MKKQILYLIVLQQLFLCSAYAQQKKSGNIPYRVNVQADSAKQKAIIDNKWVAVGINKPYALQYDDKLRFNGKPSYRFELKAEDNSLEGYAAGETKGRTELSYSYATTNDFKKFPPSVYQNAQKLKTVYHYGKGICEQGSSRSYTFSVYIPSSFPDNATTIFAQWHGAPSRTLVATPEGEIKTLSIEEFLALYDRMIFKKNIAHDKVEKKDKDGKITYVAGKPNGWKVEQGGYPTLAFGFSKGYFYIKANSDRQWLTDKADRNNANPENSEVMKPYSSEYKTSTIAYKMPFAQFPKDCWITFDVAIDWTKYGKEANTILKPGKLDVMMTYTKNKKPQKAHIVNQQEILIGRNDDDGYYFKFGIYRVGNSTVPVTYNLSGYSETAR

The experiment addresses heparinase I (Pedobacter heparinus, UniProt Q05819). The experiment can be described thus: WRK and EDC inactivation of heparinase I, protection by calcium and heparin. The experiment is classed as biochemical, Flavobacterium heparinum.

Turning to Woodward's Reagent K, under “0-400 μM WRK”, the “second order rate constant of inactivation” value came out at 132 M⁻¹ s⁻¹. For the same substance, the κinact by setting is: (preincubation with calcium alone, large calcium concentrations) 2.1 min⁻¹; (preincubation with heparin plus calcium) 1.2 min⁻¹.
